# According to US8603984B2:
# Experiments:
# [1] = tested on: narcotic side-effects of an overdose of the composition; assay: Example 7: IM naloxone reversal of narcotic effects (sedation, body temperature, heart rate) of a 5X overdose
# [2] = 40 or 160 μg/kg IM hourly
# [3] = tested on: post-operative pain
# [4] = oxymorphone-treated, 4 day study period
structure (smiles),measurement,setting,value
C=CCN1CC[C@]23c4c5ccc(O)c4O[C@H]2C(=O)CC[C@@]3(O)[C@H]1C5,mean proportion of sedated canines,"[1]; 16 through 24 hours, group 1 (40 μg/kg IM naloxone)",0.698
same,mean proportion of sedated canines,"[1]; 16 through 24 hours, group 2 (160 μg/kg IM naloxone)",0.438
same,body temperature,"[1]; 26 and 28 hours, after naloxone",35.9±0.0976 °C
same,mean proportion of sedated canines,"[1]; after cessation of naloxone, by 26 hours, both groups",1.0
same,"mean HR, naloxone period higher than fentanyl only period","[1]; dog, in vivo",28.9±1.78 bpm
same,"mean body temperature, naloxone period higher than fentanyl only period","[1]; dog, in vivo",2.19±0.0638 °C
same,"odds of being sedated, 160 μg/kg relative to 40 μg/kg IM naloxone","[1]; dog, in vivo",0.353 fold
same,heart rate,"[1]; during IM naloxone reversal, 16 through 24 hr",101±2.41 bpm
same,body temperature,"[1]; during IM naloxone reversal, 16 through 24 hr, both groups",37.7±0.0578 °C
same,heart rate,[1]; following termination of naloxone administration,83.1±3.31 bpm
same,"HR, 160 μg/kg higher than 40 μg/kg IM naloxone",[1]; naloxone treatment time period,9.97±5.11 bpm
same,"body temperature, 160 μg/kg higher than 40 μg/kg IM naloxone",[1]; naloxone treatment time period,0.412±0.123 °C
same,adverse effects of naloxone administration,[2],No seizures or other adverse affects
CN1CC[C@]23c4c5ccc(O)c4O[C@H]2C(=O)CC[C@@]3(O)[C@H]1C5,"Number of Adverse Events, Mild",Oxymorphone (N = 253),125
same,"Number of Adverse Events, Moderate",Oxymorphone (N = 253),75
same,"Number of Adverse Events, Severe",Oxymorphone (N = 253),28
same,"Number of Adverse Events, Total",Oxymorphone (N = 253),228
same,"canines with adverse events, number",oxymorphone-treated,84 canines
same,"canines with adverse events, percent",oxymorphone-treated,33.7%
same,canines with sedation scores≧2,"oxymorphone-treated, 1 hour post-extubation",70%
same,canines moderately sedated,"oxymorphone-treated, 12 hours",11%
same,canines with sedation scores≧2,"oxymorphone-treated, 24 hours",7%
same,incidence of emesis,[4],1.6-8.7%
same,incidence of hypothermia,[4],1.4-9.5%
same,mean pain score,"[3]; 2 hours following extubation, oxymorphone-treated",2.64
same,mean pain score,"[3]; Day 4, oxymorphone-treated",1.28
same,"Sum of pain intensity score, Max",[3]; Oxymorphone,72
same,"Sum of pain intensity score, Median",[3]; Oxymorphone,19
same,"Sum of pain intensity score, Min",[3]; Oxymorphone,0
same,"Treatment Failures, %","[3]; Oxymorphone 0.1-0.2 mg/kg SC every 6 hours, N = 251",10.76%
same,canines withdrawn due to severe adverse events,[3]; Oxymorphone (N = 253),18 canines
same,"Sum of pain intensity score, Mean","[3]; entire post-surgical period, Oxymorphone, N 65",21.662

# Like-named read-outs stand apart in the source and are kept apart here.
